Data as given in publication PMC6209313 (Molecular Pharmaceutics, 2018).

Experiment: Maximum drug loading capacity
Type: physicochemical
Settings: 37 °C, mean (sd)

## COC1=CC(=O)C[C@@H](C)[C@]12Oc1c(Cl)c(OC)cc(OC)c1C2=O [Griseofulvin]
IIIA-LC
  maximum drug loading capacity (loading): 2.8 (0.1) mg/g
IIIB-MC
  maximum drug loading capacity (loading): 8.1 (0.0) mg/g
IV
  maximum drug loading capacity (loading): 12.4 (0.5) mg/g
